Data on 1 molecule can be found in patent US9663463B2, “3-azabicyclo[3.1.0]hexane derivative and use thereof for medical purpose” (priority 2013, dated 2017).

Counter-ions that a name gives are not always drawn.

This series addresses hERG (Homo sapiens (Human), UniProt Q12809). Briefly: Safety margin against hERG inhibitory activity. To be noted: hERG IC50×1000/{concentration in plasma at ED50×(1−protein binding rate/100)}. On the procedure:
In order to compare the risks of extension of QT interval prolongation in the electrocardiogram among the test substances, the safety margins against the hERG inhibitory effect were calculated. […] Therefore, the following formula was used for calculating the safety margin, and the obtained values were described in Table 7. Safety margin against hERG inhibitory effect=IC50×1000/{concentration in plasma×(1−protein binding rate/100)}
IC50: the IC50 value in a hERG inhibition assay (μM)
Plasma concentration: the plasma concentration of test substance (nM) at the ED50 value in the test for evaluating the anti-pruritic effect in the morphine model
Protein binding rate: the protein binding rate (%) in the protein binding assay in murine serum
A general note: Block of hERG is tested as a sign of cardiac risk.

`CC[C@]1(c2cccc(NS(=O)(=O)C3CC3)c2)[C@@H]2CN(CCCC3(OC)CCC(F)(F)CC3)C[C@@H]21` [Example 6-(b), N-(3-{(1R,5S,6r)-3-[3-(4,4-difluoro-1-methoxycyclohexyl)propyl]-6-ethyl-3-azabicyclo[3.1.0]hexan-6-yl}phenyl)cyclopropanesulfonamide hydrochloride] came in with a Safety margin of 2130.
